The numbers were not newly measured in patent US5053389A, “Insulin preparation for non-parenteral administration” (priority 1986, dated 1991), which cites them from elsewhere.

Where two headings read alike, the source gives them in different places.

For data set [1] the following is noted: oral.
The conditions of data set [2]: subcutaneous injection of dissolved insulin.
The conditions of data set [3]: nasal.
For data set [4] the following is noted: rectal, suppository.

Regarding insulin, the figures for the “Absorption of the amount of insulin administered” value in data set [1] and in data set [4] were 1-2% and “about 5%”, respectively. The “Time to maximum insulin concentration” value is 30 to 60 min in data set [2] and 10 to 30 min in data set [3] (drops or atomized solution). The “Proportion of insulin absorbed” value in data set [3] (dissolved and atomized form) was “up to 20%”.
